Data from patent US8263599B2.

Amino acid sequences for entries named in this document (tags omitted).
UniProt P40763, whole entry: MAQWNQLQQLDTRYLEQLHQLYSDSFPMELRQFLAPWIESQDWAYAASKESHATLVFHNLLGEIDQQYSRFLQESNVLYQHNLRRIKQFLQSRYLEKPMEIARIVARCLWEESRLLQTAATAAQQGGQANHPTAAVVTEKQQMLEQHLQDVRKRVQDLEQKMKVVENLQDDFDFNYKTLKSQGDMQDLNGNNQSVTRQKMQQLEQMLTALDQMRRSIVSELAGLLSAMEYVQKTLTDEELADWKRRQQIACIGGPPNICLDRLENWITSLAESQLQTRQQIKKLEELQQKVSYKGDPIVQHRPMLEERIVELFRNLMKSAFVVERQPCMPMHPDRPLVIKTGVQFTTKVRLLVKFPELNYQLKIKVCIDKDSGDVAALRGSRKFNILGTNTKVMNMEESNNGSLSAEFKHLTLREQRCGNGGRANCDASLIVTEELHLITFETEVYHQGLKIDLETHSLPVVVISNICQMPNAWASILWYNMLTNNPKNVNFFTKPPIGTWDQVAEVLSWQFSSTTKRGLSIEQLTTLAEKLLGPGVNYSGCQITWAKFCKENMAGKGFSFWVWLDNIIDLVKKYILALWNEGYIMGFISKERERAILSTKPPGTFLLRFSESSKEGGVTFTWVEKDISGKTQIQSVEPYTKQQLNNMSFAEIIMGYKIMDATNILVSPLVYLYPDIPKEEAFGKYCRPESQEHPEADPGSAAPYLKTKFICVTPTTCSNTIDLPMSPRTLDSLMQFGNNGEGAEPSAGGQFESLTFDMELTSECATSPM
UniProt P51692, whole entry: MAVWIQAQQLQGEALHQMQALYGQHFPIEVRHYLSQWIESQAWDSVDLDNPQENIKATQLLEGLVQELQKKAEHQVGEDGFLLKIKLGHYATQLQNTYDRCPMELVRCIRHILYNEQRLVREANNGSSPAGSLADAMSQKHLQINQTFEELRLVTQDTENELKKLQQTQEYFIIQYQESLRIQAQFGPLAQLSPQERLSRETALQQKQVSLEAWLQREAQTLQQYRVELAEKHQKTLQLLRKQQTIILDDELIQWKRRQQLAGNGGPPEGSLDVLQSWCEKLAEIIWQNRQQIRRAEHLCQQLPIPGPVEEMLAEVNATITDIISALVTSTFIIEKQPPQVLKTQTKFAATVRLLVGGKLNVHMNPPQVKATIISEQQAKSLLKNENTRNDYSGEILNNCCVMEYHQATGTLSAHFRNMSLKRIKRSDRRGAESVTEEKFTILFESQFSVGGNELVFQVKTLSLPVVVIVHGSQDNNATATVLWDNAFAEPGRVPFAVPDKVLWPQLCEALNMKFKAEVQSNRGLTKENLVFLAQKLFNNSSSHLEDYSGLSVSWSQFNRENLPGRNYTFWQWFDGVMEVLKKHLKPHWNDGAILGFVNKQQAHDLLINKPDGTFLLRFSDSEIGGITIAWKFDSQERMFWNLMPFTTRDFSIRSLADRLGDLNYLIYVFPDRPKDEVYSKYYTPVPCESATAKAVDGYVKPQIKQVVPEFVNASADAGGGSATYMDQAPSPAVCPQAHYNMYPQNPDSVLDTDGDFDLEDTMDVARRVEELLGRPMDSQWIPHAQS

Columns and labels:
STAT3 = STAT3 (Homo sapiens, UniProt P40763); experiment: Amount of STAT3 activated in nucleus of Hep G2 cells after stimulation with IL-6 (TransAM STAT3 DNA binding ELISA); conditions: test compound 3 h, then IL-6 500 ng/mL for 5 min, nuclear extract
Description: Effect of test compound on the amount of STAT3 activated in nucleus of Hep G2 cells after stimulation with IL-6
After Hep G2 cells are washed with PBS (−) twice, they are washed once with trypsin/EDTA solution and detached using trypsin/EDTA solution. The cells are centrifuged and suspended in a medium supplemented with antibiotics (MEM medium (10% FBS +antibiotic (100 U/mL penicillin+100 μg/mL streptomycin)). After the number of cells is counted, the cells are seeded on 12-well plates at a density of 1.2×10^5 cells/1 mL per well.
Two days after seeding, the culture medium is replaced with 1 mL of antibiotic-free culture medium (MEM medium (10% FBS)).
(§1) 2) Addition of Test Compound
Two days after medium replacement, a test compound is added so as to obtain concentrations of 0, 1, 10 and 100 nM.
Three hours after addition of the test compound, IL-6 (Code No. KTS102S manufactured by Kamakura Techno Science Inc.) is added at a final concentration 0 or 500 ng/mL.
Five minutes after addition of IL-6, extraction is performed by use of a Nuclear Extraction Kit (Code No. 40410 manufactured by Active Motif Inc.)
3) Extraction of Nuclear Fraction
The supernatant of the cells is removed by suction. The cells are washed with 1 mL of ice-cold phosphatase inhibitor-containing PBS (hereinafter, PBS/phosphatase inhibitor) and the supernatant of the cells is again removed by suction.
The cells are collected with a cell scraper in 0.6 mL of ice-cold PBS/phosphatase inhibitors and divided into ice-cold 1.5 mL microtubes.
After the microtube is centrifuged at 4° C. and a rate of 400×g for 5 minutes, the supernatant is removed.
The cells are resuspended in 0.2 mL of hypotonic buffer by pipetting up and down several times and kept on ice for 15 minutes.
To this suspension, 10 μL of a detergent is added and vortexed for 10 seconds. After centrifugation is performed at 4° C. and a rate of 20,400×g for 30 seconds, the supernatant is removed.
To the resultant cells, 50 μL of Complete Lysis Buffer is added. The suspension is pipetted, vortexed for 10 seconds and shaken on ice for 30 minutes.
After vortexed for 30 seconds, the suspension is centrifuged at 4° C. and a rate of 20,400×g for 10 minutes.
The supernatant is divided into ice-cold 1.5 mL microtubes and stored at −80° C.
4) DNA Binding is Measured by use of TransAM STAT3 Kit (Code No. 45196 Manufactured by Active Motif Inc.)
To each of the wells of an ELISA plate, 30 μL of Complete Binding Buffer and 20 μL of a sample (extracted from a nucleus) are added.
A positive control: 10 μl of Hep G2 nuclear extract (2.5 mg/mL) is diluted with 40 μL of Complete Lysis Buffer (10 μg/20 μL). Dilutions were prepared at 5, 2.5, 1.25, 0.625 and 0.313 μg/20 μL by sequential half-fold dilution, and 20 μL of dilutions is added to each well.
Blank well: 20 μL of Complete Lysis Buffer is added.
After the plate is sealed, the plate is gently shaken at room temperature for one hour, followed by washing with 200 μL of washing buffer three times.
100 μL of a STAT3 antibody is added and the plate is sealed. Thereafter, the plate is gently shaken at room temperature. One hour later, the plate is washed with 200 μL of washing buffer three times. After washing, 100 μL of an HRP-conjugated antibody is added. The plate is sealed, gently shaken at room temperature for one hour, followed by washing with 200 μL of washing buffer four times.
After that, 100 μL of developing solution returned to room temperature is added, and the plate is incubated for 2 to 10 minutes protected from light. After color development is confirmed, 100 μL of stop solution is added and absorbance at 450 nm and 630 nm is determined within 5 minutes.

STAT5 = STAT5 (Homo sapiens, UniProt P51692); experiment: Prolactin-induced STAT5 activation in 22Rv1 cells (TransAM STAT family kit, STAT5B antibody); conditions: 1000 nM test compound, 3 h, then prolactin 250 ng/mL for 15 min, cytoplasmic fraction
Description: Effect of test compound on prolactin-induced STAT5 activation in 22Rv1 cells
After 22Rv1 cells cryopreserved are subcultured at least twice, they are subjected to a test. After culture until subconfluency, the cells are washed with D-PBS (−). Thereafter, they are detached using trypsin/EDTA solution and suspended in a medium (RPMI-1640 medium (10% FBS+antibiotics (100 U/mL penicillin+100 μg/mL streptomycin)). The cell suspension solution is centrifuged at 150×g, for 5 minutes at 20 to 25° C. The supernatant is removed and the pellet is resuspended in the medium. An aliquot of the cell suspension solution is taken and dead cells are stained with trypan blue. The number of viable cells is counted by a hemocytometer. A cell suspension solution is prepared so as to contain 2×10^5 cells/mL, and cells are seeded in a 12 well-plate in a rate of 2×10^5 cells/mL per well. Cells are cultured in a CO2 incubator (5% CO2, 37° C.)
as §1
Two days after seeding, a test compound is added so as to obtain concentrations of 0 and 1000 nM.
Three hours after addition of the test compound, recombinant human prolactin (rhPRL, R&D systems Inc.) is added so as to obtain a concentration of 0 or 250 ng/mL.
3) Extraction of Cytoplasmic Fraction
Fifteen minutes after addition of prolactin, extraction is performed by a Nuclear Extract Kit (Code No. 40410 manufactured by Active Motif Inc.). At 15 minutes after the addition of prolactin, the supernatant is removed and prolactin-stimlation is immediately stopped by adding 1 ml of ice-cold PBS/phosphatase inhibitor. After aspirating 1 mL of ice-cold PBS/phosphatase inhibitor, 0.6 mL of ice-cold PBS/phosphatase inhibitor is added and centrifuged at 200×g, for 5 minutes at 4° C.
After the supernatant is removed, 0.2 mL of hypotonic buffer is added and suspended. After the suspension is kept on ice for 15 minutes, 10 μL of a detergent is added. After the solution is further stirred, it is centrifuged at 14,000×g, for one minute at 4° C. The resultant supernatant (cytoplasmic fraction) is divided to three ice-cold 96-well plates, and stored in a freezer of −80° C.
4) Measurement of Activated STATS
Measurement is performed by use of reagents attached to TransAM™STAT family kit. To describe more specifically, to each of the wells of an ELISA plate of the TransAM™STAT family kit, 30 μL of Complete Binding Buffer is added, and thereafter, 20 μL of the cytoplasmic fraction is added. As a sample for calibration curve, 12 μL of a cell nuclear fraction reference sample (Nb2 nuclear fraction (prolactin stimulated, 2.5 μg/μL)) attached to the TransAM™STAT family kit is diluted with 48 μL of Complete Lysis Buffer (to 10 μg/20 μL), and further serially diluted in half to prepare diluted solutions of 5, 2.5, 1.25, 0.625, 0.313, and 0.156 μg/20 μL. 20 μl of each of the dilution solution is added to well. As a blank, 20 μL of Complete Lysis Buffer is added. After addition of a sample, the plate is sealed and gently shaken at room temperature for one hour. After that, the plate is washed with 200 μL of wash buffer three times. Next, 100 μL of STAT5B antibody is added, sealed and incubated at room temperature without agitation. One hour later, the plate is washed with 200 μL of wash buffer three times. 100 μL of a Horseradish Peroxidase (HRP)-conjugated antibody is added, sealed and incubated at room temperature without agitation. One hour later, the plate is washed with 200 μL of wash buffer four times and 100 μL of a developing solution is added. The plate is incubated for 2 to 10 minutes protected from light. After color development is confirmed, 100 μL of a stop solution is added. Immediately after, absorbance at 450 nm (measurement wavelength) and 630 nm (reference wavelength) is determined using a plate reader.
The amount of phosphorylated STAT5B dimer is estimated based on a calibration curve. […]

IC50 (STAT3)	T/C % (amount of phosphorylated STAT5B dimer relative to absence of drug) (STAT5)	Structure (SMILES)
< 0.15 µM	<30%	CN(c1ccc(N2CCN(CC(=O)N3CCN(Cc4ccc5c(c4)OCO5)CC3)CC2)cc1)c1ccc(NC(=O)c2ccc(C(F)(F)F)cc2)cn1
< 0.15 µM	<30%	O=C(Nc1ccc(Oc2ccc(CCC(=O)N3CCN(Cc4ccc5c(c4)OCO5)CC3)cc2)nc1)c1ccc(C(F)(F)F)cc1
< 0.15 µM	<30%	CN(c1ccc(CCC(=O)N2CCN(Cc3ccc4c(c3)OCO4)CC2)cc1)c1ccc(NC(=O)c2ccc(C(F)(F)F)cc2)cn1
< 0.15 µM	<30%	Cc1cc(N(C)CC(=O)N2CCN(Cc3ccc4c(c3)OCO4)CC2)ccc1Oc1ccc(NC(=O)c2ccc(C(F)(F)F)cc2)cn1

The remaining lines, values behind:

Structure (SMILES)	IC50 (STAT3)	T/C % (amount of phosphorylated STAT5B dimer relative to absence of drug) (STAT5)
Cc1cc(N2CCC(CC(=O)N3CCN(Cc4ccc5c(c4)OCO5)CC3)CC2)ccc1Oc1ccc(NC(=O)c2ccc(C(F)(F)F)cc2)cn1	< 0.15 µM	<30%
Cc1cc(NC(=O)C(=O)N2CCN(Cc3ccc4c(c3)OCO4)CC2)ccc1Oc1ccc(N(C)Cc2ccc(C(F)(F)F)cc2)cn1	< 0.15 µM	<30%
CN(CC(=O)N1CCN(Cc2ccc3c(c2)OCO3)CC1)c1ccc(Oc2ccc(NC(=O)c3ccc(C(F)(F)F)cc3)cc2)cc1	< 0.15 µM	<30%
CN(CC(=O)N1CCN(Cc2ccc3c(c2)OCO3)CC1)c1ccc(Oc2ccc(C(=O)Nc3ccc(C(F)(F)F)cc3)cn2)cc1C(F)(F)F	< 0.15 µM	<30%
